For one molecule, mortality results are on record in patent US20250041438A1, “ANTIBODY-DRUG CONJUGATE” (NOVELTY NOBILITY INC., priority 2022, published 2025).

Molecules are shown by their SMILES.

This series deals with GIST-T1 cells. The series is described as follows: In vivo efficacy against GIST, GIST-T1 cell xenograft model. The following applies: imatinib 100 mg/kg group.

For `Cc1ccc(NC(=O)c2ccc(CN3CCN(C)CC3)cc2)cc1Nc1nccc(-c2cccnc2)n1`, the mortality worked out at 1 case died on day 91.
